Measured values reported in US20070026433A1, “Epitope testing using soluble HLA” (priority 2001, published 2007).

Target: sHLA-A*0201 (Homo sapiens, UniProt P04439, D140Y/D185E/D98H/E176V/E277Q/G131W/G231S/I119V/I121R/I166T/I218V/L300P/L318F/N151K/N90K/P208A/P217A/Q86G/Q94H/R138H/R169H/T345S)
Assay: biochemical
Format: binding
Set-up: contained the leader peptide, as well as the α1, α2, and α3 coding domains of the HLA heavy chain; made in house; β2m from Fitzgerald Industries International
Details: 50 μg/mL (1059 nM) sHLA-A*0201, β2m 2117 nM, 1 nM FITC-labeled reference peptide P5; read-out: StD comp assay (FP) IC50

SMILES: CSCC[C@H](NC(=O)[C@@H](N)Cc1ccc(O)cc1)C(=O)N[C@@H](CC(=O)O)C(=O)N[C@@H](CC(=O)O)C(=O)N[C@H](C(=O)N[C@H](C(=O)N[C@@H](CC(C)C)C(=O)NCC(=O)N[C@@H](C)C(=O)O)C(C)C)C(C)C
- IC50: 823 nM
